# Data published in patent US11083714B2, “Selective anti-cancer agent effective for prevention and treatment” (Molecular International Research, Inc., priority 2018, dated 2021).
# Test: Stability and water solubility of the salt
substance,measurement,value
"12H-indolo[2,3-a]quinolizin-5-ylium sulfate [sulfate salt of de-ethylflavopereine]",stability and water solubility,stable and water soluble
